Sequences of proteins named here, by UniProt entry; tags and fusion partners are left off. A change or cut given only in a name is not applied to a line headed by its entry.
UniProt P41145: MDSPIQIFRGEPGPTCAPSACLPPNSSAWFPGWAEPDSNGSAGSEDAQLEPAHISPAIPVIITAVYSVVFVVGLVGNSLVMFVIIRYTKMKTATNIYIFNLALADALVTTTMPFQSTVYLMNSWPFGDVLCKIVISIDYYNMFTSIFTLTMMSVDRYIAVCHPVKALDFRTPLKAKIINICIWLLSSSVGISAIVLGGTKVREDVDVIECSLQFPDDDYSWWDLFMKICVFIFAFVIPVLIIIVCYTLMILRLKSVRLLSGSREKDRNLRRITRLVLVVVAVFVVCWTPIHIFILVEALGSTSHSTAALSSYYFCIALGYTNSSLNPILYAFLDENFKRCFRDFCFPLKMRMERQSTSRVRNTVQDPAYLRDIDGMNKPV
UniProt P20309, whole entry: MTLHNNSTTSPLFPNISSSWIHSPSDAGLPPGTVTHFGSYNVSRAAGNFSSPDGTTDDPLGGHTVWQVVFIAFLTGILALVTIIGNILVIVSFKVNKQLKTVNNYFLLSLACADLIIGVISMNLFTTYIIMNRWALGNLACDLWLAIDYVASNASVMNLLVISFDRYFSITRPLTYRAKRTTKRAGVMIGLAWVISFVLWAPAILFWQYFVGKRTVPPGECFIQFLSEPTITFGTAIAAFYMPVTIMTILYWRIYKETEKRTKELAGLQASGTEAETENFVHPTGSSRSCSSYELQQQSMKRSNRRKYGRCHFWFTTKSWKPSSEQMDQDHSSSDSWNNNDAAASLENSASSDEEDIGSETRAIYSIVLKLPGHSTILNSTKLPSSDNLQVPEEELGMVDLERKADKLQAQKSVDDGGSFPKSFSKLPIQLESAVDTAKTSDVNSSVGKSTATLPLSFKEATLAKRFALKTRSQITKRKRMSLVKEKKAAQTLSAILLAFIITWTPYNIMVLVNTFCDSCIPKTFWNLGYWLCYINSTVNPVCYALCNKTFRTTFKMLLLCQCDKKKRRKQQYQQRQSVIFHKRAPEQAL
UniProt P11229: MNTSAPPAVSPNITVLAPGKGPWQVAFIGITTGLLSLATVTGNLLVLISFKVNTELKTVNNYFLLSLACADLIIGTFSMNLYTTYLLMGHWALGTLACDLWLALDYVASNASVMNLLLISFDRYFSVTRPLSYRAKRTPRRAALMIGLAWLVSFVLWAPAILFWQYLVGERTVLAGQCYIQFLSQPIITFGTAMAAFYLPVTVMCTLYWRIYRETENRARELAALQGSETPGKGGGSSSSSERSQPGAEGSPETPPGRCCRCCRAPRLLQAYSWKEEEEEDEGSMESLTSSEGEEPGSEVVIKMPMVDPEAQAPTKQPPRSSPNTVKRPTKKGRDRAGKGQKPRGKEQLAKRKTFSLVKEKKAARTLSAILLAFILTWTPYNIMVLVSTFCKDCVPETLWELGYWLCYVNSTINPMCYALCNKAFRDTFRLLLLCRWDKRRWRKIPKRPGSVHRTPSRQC
UniProt Q12809: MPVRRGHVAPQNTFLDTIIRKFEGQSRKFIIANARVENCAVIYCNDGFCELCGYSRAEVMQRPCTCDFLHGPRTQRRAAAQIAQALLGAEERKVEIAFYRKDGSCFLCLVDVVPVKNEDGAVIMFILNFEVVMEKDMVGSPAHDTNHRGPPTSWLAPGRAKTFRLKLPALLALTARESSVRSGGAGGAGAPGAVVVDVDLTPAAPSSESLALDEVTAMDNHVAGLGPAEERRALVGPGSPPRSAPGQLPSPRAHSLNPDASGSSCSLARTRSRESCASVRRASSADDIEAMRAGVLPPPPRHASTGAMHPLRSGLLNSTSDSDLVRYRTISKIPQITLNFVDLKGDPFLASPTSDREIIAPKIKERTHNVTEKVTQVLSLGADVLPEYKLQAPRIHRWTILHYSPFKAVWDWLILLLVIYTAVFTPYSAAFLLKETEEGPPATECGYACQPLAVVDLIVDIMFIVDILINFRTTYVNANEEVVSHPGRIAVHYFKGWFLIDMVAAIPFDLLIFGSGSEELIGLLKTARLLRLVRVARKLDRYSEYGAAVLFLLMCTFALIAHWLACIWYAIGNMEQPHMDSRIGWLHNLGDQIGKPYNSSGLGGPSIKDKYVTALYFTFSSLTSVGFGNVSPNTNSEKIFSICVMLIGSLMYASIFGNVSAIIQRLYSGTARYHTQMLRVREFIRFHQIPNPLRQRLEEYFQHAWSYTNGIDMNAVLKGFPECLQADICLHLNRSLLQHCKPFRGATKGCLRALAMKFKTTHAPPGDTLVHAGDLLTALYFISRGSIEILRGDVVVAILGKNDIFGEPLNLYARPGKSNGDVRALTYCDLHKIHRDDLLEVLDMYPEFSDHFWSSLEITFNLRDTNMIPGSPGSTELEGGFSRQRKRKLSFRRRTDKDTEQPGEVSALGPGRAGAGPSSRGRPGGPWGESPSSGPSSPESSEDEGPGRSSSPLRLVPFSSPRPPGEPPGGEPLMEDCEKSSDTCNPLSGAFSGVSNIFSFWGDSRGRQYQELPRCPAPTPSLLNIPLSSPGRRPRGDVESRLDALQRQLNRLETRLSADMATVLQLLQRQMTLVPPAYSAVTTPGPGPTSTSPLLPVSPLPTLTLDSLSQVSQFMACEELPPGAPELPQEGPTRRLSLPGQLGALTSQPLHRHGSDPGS
UniProt P35462, whole entry: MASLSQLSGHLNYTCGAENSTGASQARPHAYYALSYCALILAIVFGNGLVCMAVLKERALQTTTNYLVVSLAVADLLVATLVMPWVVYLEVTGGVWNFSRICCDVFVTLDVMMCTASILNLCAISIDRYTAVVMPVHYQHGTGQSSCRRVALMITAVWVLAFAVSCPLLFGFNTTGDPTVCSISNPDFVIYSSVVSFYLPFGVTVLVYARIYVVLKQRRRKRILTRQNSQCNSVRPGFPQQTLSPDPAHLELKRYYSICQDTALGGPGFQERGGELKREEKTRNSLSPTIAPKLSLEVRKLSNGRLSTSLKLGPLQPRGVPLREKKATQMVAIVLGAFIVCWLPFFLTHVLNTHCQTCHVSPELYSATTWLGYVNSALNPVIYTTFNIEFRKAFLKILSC
UniProt P35367, whole entry: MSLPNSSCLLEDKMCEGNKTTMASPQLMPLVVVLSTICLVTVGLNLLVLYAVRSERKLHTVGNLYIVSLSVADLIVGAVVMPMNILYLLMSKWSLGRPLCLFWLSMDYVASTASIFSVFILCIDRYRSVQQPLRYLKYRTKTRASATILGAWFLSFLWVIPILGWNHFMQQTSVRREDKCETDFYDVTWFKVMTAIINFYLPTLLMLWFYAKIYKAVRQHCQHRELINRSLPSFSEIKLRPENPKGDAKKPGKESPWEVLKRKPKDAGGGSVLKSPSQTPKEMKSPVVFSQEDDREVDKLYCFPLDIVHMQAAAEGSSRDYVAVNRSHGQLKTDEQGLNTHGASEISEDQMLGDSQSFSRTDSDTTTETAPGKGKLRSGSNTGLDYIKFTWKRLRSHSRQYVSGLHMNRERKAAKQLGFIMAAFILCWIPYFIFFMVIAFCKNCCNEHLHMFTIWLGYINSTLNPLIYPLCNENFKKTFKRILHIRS
UniProt P18089, whole entry: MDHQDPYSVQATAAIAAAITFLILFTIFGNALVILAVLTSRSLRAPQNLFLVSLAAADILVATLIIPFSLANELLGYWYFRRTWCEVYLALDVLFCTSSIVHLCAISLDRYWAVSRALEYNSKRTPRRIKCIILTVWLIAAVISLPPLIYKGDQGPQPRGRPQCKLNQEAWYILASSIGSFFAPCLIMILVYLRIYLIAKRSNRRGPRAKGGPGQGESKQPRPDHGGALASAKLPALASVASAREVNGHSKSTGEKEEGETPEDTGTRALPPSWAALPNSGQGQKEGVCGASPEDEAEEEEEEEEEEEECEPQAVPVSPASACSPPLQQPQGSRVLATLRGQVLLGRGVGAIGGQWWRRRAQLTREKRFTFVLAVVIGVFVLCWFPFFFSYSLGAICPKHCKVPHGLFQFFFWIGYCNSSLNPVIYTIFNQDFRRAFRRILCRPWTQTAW

According to ChEMBL document CHEMBL5291721, “A preclinical secondary pharmacology resource illuminates target-adverse drug reaction associations of marketed drugs” (Nat Commun, 2023):

Experiments:
[1] = molecular target: Kappa-type opioid receptor (Homo sapiens, UniProt P41145)
[2] = molecular target: Muscarinic acetylcholine receptor M3 (Homo sapiens, UniProt P20309)
[3] = molecular target: Muscarinic acetylcholine receptor M1 (Homo sapiens, UniProt P11229); format: functional
[4] = molecular target: Voltage-gated inwardly rectifying potassium channel KCNH2 (Homo sapiens, UniProt Q12809)
D(3) dopamine receptor = D(3) dopamine receptor (Homo sapiens, UniProt P35462)
Histamine H1 receptor = Histamine H1 receptor (Homo sapiens, UniProt P35367)
[5] = molecular target: Alpha-2B adrenergic receptor (Homo sapiens, UniProt P18089)
Note: assay procedure not described here.

`COc1ccc2c3c1O[C@H]1[C@@H](O)C=C[C@H]4[C@@H](C2)N(C)CC[C@@]341` [CODEINE] was tested, and the AC50 [1] was 4.94 µM.

`CC(C)[N+]1(C)[C@@H]2CC[C@H]1C[C@@H](OC(=O)C(CO)c1ccccc1)C2` (some centres not stated) [IPRATROPIUM] showed an AC50 [2] of 0.0017 µM.

In the case of `CN(CCCN1c2ccccc2CCc2ccccc21)CC(=O)c1ccc(Cl)cc1` [LOFEPRAMINE], the AC50 [3] is reported as 4.3 µM.

`C1CCC(C(CC2CCCCN2)C2CCCCC2)CC1` (configuration not stated) [PERHEXILINE] was tested, and the AC50 [4] was 3.5 µM.

With `CC(C)(C)NCC(O)COc1cccc2c1SCCC2` (configuration not stated) [TERTATOLOL] the AC50 (D(3) dopamine receptor) was > 30 µM.

`CN1CCN(CC/C=C2/c3ccccc3Sc3ccc(S(=O)(=O)N(C)C)cc32)CC1` [THIOTHIXENE] gave an AC50 (Histamine H1 receptor) of 0.036 µM and an AC50 [5] of 0.078 µM.
